Here are results for seven molecules from patent US10239843B2 (CANCER RESEARCH TECHNOLOGY LIMITED, priority 2014, dated 2019).

Amino acid sequences for entries named in this document (tags omitted).
UniProt Q86W56, whole entry: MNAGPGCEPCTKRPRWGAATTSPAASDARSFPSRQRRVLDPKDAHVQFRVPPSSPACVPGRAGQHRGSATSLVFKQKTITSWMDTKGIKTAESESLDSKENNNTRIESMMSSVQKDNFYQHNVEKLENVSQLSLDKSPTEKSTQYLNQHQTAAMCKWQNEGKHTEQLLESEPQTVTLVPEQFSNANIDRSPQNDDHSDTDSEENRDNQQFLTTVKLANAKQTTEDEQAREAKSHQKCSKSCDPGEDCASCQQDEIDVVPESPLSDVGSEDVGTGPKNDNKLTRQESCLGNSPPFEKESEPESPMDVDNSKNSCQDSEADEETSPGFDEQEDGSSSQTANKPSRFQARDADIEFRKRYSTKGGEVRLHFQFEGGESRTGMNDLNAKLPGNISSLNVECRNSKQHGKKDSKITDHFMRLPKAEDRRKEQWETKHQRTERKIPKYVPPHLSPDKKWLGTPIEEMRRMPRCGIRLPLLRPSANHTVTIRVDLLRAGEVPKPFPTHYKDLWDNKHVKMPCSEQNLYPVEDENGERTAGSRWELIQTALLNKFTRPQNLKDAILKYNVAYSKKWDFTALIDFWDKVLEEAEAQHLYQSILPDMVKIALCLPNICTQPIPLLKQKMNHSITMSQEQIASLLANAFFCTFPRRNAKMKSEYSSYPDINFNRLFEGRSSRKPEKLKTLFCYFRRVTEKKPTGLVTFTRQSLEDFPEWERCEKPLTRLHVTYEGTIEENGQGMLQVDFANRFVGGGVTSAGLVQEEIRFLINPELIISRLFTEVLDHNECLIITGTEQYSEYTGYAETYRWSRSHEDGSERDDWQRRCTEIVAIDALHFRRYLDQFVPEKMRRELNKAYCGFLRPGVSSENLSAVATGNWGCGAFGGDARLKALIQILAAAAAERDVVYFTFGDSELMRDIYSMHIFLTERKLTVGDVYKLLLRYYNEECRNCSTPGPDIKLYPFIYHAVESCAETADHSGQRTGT
UniProt P09874, whole entry: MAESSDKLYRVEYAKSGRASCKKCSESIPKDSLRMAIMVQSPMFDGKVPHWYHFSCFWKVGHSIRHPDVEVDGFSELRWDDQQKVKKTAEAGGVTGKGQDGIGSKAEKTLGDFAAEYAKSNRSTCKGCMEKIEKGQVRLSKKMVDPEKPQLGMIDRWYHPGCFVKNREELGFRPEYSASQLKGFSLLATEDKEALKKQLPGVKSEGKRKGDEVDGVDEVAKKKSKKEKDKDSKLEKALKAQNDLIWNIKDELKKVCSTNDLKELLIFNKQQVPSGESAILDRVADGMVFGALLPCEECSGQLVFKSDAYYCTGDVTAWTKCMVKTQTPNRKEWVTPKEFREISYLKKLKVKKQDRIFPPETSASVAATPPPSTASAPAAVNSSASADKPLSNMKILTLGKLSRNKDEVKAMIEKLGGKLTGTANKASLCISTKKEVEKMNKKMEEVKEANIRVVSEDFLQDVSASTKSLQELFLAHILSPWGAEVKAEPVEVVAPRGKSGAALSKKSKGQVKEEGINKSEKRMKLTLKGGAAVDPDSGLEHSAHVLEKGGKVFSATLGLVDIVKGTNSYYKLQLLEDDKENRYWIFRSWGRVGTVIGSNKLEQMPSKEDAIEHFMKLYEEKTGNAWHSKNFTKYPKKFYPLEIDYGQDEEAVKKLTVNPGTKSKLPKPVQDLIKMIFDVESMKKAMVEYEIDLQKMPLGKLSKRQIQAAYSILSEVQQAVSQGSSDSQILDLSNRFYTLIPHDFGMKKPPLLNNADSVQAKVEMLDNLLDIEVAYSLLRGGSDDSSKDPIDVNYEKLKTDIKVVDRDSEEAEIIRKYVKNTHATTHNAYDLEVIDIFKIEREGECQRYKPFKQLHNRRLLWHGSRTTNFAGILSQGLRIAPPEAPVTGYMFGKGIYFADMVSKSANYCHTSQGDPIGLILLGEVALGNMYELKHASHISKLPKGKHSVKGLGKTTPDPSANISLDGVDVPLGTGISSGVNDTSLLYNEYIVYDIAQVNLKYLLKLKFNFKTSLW
UniProt Q9NX46, whole entry: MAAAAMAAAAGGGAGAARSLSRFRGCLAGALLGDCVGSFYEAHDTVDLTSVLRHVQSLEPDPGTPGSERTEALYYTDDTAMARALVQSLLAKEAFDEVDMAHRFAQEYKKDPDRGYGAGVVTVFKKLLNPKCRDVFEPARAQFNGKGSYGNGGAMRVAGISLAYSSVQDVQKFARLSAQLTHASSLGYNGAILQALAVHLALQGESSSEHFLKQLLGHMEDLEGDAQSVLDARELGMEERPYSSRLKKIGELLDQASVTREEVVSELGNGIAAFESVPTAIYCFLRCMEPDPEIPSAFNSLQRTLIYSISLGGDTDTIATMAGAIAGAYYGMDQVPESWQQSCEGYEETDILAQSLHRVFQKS

One test deals with Human Full Length PARG (Homo sapiens (Human), UniProt Q86W56). Description: PARG enzyme assay (TR-FRET). It counts as biochemical. The following applies: read-out: PARG Biochem IC50 Geomean.
A further test has as its system PARG in HeLa cell line. Description: PARG cell assay (PAR chain immunofluorescence after MMS). The class given is cell-based. The following applies: read-out: PARG Cell IC50 Geomean.
The target in test [1] is Human High specific Activity PARP1 (Homo sapiens (Human), UniProt P09874). Description: PARP1 in vitro selectivity assay (histone PARylation, luminescence). The class given is biochemical. The following applies: read-out: PARP1 Biochem IC50.
For a further test, the target named is Human Full Length ARH3 (Homo sapiens (Human), UniProt Q9NX46). The experiment in a line: ARH3 in vitro selectivity assay (TR-FRET). The following applies: read-out: ARH3 Biochem IC50. It counts as biochemical. In general terms: In TR-FRET formats the signal depends on donor and acceptor labels being close together.

Where two headings read alike, the source gives them in different places.

As to `C#C[C@H](C)n1c(=O)n(C)c(=O)c2cc(S(=O)(=O)NC3(C)CC3)ccc21`, at Human Full Length PARG, the IC50 worked out at 3680 nM.
In the case of `Cn1cc(Cn2c(=O)c3cc(S(=O)(=O)NC4(C)CC4)ccc3n(CC3CCC(=O)N3)c2=O)cn1` (centres unmarked), the IC50 in the test with PARG in HeLa cell line (HeLa cells, MMS 50 μg/mL) is 5540 nM; at Human Full Length PARG, 127 nM.
Regarding `Cc1ncc(Cn2c(=O)n(Cc3cnn(C)c3)c(=O)c3cc(S(=O)(=O)NC4(C#N)CC4)ccc32)s1`, the concentration for half-maximal inhibition (IC50) came to 385 nM with PARG in HeLa cell line (HeLa cells, MMS 50 μg/mL) and 20 nM at Human Full Length PARG.
Take `C#C[C@@H](C)n1c(=O)n(C)c(=O)c2cc(S(=O)(=O)NC3(C)CC3)ccc21`: the IC50 at Human Full Length PARG was 2790 nM.
Turning to `Cc1cc(Cn2c(=O)c3cc(S(=O)(=O)NC4(C)CC4)ccc3n(CCC(C)(C)O)c2=O)on1`, the IC50 in the test on PARG in HeLa cell line is 597 nM; at Human Full Length PARG, 245 nM.
Turning to `CC(C)Oc1nc2ccc(S(=O)(=O)NC3(C)CC3)cc2c(=O)n1Cc1cnn(C)c1`, the IC50 was above 150000 nM in test [1]; 132 nM with PARG in HeLa cell line (HeLa cells, MMS 50 μg/mL); 237 nM at Human Full Length PARG; above 150000 nM on Human Full Length ARH3.
With `Cc1nc(C)c(Cn2c(=O)n(Cc3cnn(C)c3)c(=O)c3cc(S(=O)(=O)NC4(C#N)CC4)ccc32)s1`, the IC50 in the test with PARG in HeLa cell line (HeLa cells, MMS 50 μg/mL) is 236 nM; on Human Full Length PARG it was 11 nM.

As a reminder, the IC50 is the concentration that gives 50% inhibition.
